Experimental data taken from DBAASP.

Key:
Assay in all cases: ≥ marks a high value that may be exact or a test limit, other limits are often not marked, values filed in µg/mL are converted to µM
[1] = system: Pseudomonas syringae pv. syringae EPS 94
[2] = system: Erwinia amylovora PMV 6076
[3] = system: Streptococcus pyogenes M1T1 5448
[4] = system: Pseudomonas aeruginosa PAO1
Escherichia coli BL21 = system: Escherichia coli BL21

| MIC [3] [µM] | MIC [4] [µM] | MIC (Escherichia coli BL21) [µM] | Structure (SMILES) | MIC [1] [µM] | MIC [2] [µM] |
| --- | --- | --- | --- | --- | --- |
| – | – | – | CC[C@H](C)[C@H](NC(=O)[C@H](CC(C)C)NC(=O)[C@H](C)NC(=O)[C@@H]1CCCN1C(=O)[C@H](CC(C)C)NC(=O)CNC(=O)[C@@H](NC(=O)[C@@H](NC(=O)[C@H](C)NC(=O)[C@@H]1CCCN1C(=O)CNC(=O)[C@H](C)NC(=O)[C@H](CC(C)C)NC(=O)[C@H](Cc1ccc(O)cc1)NC(=O)[C@H](CCCCN)NC(=O)[C@H](CC(C)C)NC(=O)[C@@H](NC(=O)[C@H](CCCCN)NC(=O)[C@H](CCCCN)NC(=O)[C@H](Cc1ccccc1)NC(=O)[C@H](CC(C)C)NC(=O)[C@H](CCCCN)NC(=O)[C@H](CCCCN)NC(=O)CN)[C@@H](C)CC)[C@@H](C)O)[C@@H](C)O)C(=O)N[C@@H](CO)C(=O)N[C@@H](Cc1c[nH]c2ccccc12)C(=O)O [GKKLFKKILKYLAGPATTGLPALISW] | 1.77 (≈ 4.98 µg/mL) | 1.77 (≈ 4.98 µg/mL) |
| 16 (≈ 48 µg/mL) | 32 (≈ 96.1 µg/mL) | 4 (≈ 12 µg/mL) | CC[C@H](C)[C@H](NC(=O)[C@H](CO)NC(=O)[C@H](CCC(=O)O)NC(=O)[C@H](CCCN=C(N)N)NC(=O)[C@H](Cc1c[nH]c2ccccc12)NC(=O)[C@H](C)N)C(=O)N[C@@H](CCCCN)C(=O)N[C@@H](C)C(=O)N[C@@H](Cc1ccc(O)cc1)C(=O)N[C@@H](CC(C)C)C(=O)N[C@@H](CCCCN)C(=O)N[C@@H](CCCCN)C(=O)N[C@@H](CCC(=O)O)C(=O)N[C@H](C(=O)N[C@@H](CCCCN)C(=O)N[C@@H](CCCCN)C(=O)N[C@@H](CCCCN)C(=O)NCC(=O)N[C@@H](CCCCN)C(=O)N[C@@H](CCCN=C(N)N)C(=O)N[C@H](C(=O)N[C@H](C(=O)N[C@@H](C)C(=O)N[C@@H](C)C(=O)N[C@@H](Cc1c[nH]c2ccccc12)C(=O)O)C(C)C)[C@@H](C)CC)[C@@H](C)CC [AWRESIKAYLKKEIKKKGKRIVAAW] | – | – |

≈ marks a conversion by molar mass, not a printed value.
